The values below come from patent US20240051950A1.

Protein sequences, listed by entry. Tags and fused reporters are not part of them.
UniProt P08684, whole entry: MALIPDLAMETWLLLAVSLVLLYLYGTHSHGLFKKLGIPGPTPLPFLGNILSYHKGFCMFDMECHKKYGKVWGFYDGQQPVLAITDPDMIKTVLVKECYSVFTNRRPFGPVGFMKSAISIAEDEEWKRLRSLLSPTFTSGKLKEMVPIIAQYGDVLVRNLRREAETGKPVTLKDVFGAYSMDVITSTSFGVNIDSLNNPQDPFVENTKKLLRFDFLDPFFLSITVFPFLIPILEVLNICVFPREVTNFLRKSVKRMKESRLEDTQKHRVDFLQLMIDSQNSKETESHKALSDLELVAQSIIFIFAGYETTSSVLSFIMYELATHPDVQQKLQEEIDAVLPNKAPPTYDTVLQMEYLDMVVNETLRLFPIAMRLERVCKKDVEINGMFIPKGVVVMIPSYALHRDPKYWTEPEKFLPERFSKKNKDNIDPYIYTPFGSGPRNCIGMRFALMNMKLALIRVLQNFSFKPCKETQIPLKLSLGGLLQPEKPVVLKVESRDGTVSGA

For data set [1], the target named is T1, CYP3A4 (Homo sapiens, UniProt P08684). The data set is described as follows: Spectral binding titrations (equilibrium ligand binding, spectral Kd/Ks). Particulars: for Kd: spectral Kd from equilibrium titration plots, Example 1, Table 1.
In data set [2] the target is T1, CYP3A4. The data set is described as follows: Inhibitory potency assay, BFC O-debenzylation activity in a soluble reconstituted system with cytochrome P450 reductase. Particulars: for IC50: BFC as substrate, reconstituted system with cytochrome P450 reductase, Example 1, Table 1; for IC50 for the BFC debenzylase activity of CYP3A4: 0.1 μM CYP3A4, no NADPH preincubation, Example 2.

Data set [3] has as its target T1, CYP3A4. The experiment in a line: Thermal denaturation of ligand-bound CYP3A4. Particulars: 1 μM protein, 20 μM ligand.

What is called Kd is the equilibrium constant for the complex coming apart. The low end stands for a tighter complex, the high end for a looser complex. One may read the IC50 as the concentration that gives 50% inhibition.

Where only a bound is given, the exact number is not on record here.

On CYP3A4 [1], `O=C(CNC(=O)c1ccco1)N[C@H](CS[C@H](Cc1ccccc1)C(=O)NCCCc1ccncc1)Cc1ccccc1` yielded a Kd of 10 nM. This compound registered an IC50 against CYP3A4 [2] of 150 nM.
`O=C(N[C@H](CS[C@H](Cc1ccccc1)C(=O)NCCCc1cccnc1)Cc1c[nH]c2ccccc12)c1cccnc1` returned a Kd on CYP3A4 [1] of 16 nM. The IC50 against CYP3A4 [2] was found to be 220 nM.
For the compound `CC(C)(C)OC(=O)N[C@H](CS[C@H](Cc1ccccc1)C(=O)NCCOCc1cccnc1)Cc1ccccc1`, the “ΔTm (increase in melting temperature of ligand-bound CYP3A4)” value on CYP3A4 [3] is less than 3 °C. For the same compound, the “Spectral dissociation constant (Ks)” value on CYP3A4 [1] (WT CYP3A4, 2 μM protein, 0.1 M phosphate pH 7.4, Example 2) was “weakest binder”. The “IC50 for the BFC debenzylase activity of CYP3A4” value on CYP3A4 [2] is given as “least potent inhibitor”.
Regarding `CC(C)(C)OC(=O)N[C@H](CS[C@H](Cc1ccccc1)C(=O)NCCCc1cccnc1)Cc1c[nH]c2ccccc12`, the “Fold improvement in binding affinity (Ks)” value on CYP3A4 [1] (relative to the shorter pyridyl-ethyl counterparts (4e-h; 7b)) is given as 4 fold.
`O=C(N[C@H](CS[C@H](Cc1ccccc1)C(=O)NCCCc1cccnc1)Cc1cccc2ccccc12)c1ccco1`: the Kd at CYP3A4 [1] was determined as 3 nM. Also, the IC50 on CYP3A4 [2] turned out to be 150 nM.
As for `CC(C)(C)OC(=O)N[C@@H](CS[C@@H](Cc1ccccc1)C(=O)NCCCc1cccnc1)Cc1cccc2ccccc12`, the “IC50 for the BFC debenzylase activity of CYP3A4” value at CYP3A4 [2] is recorded as “weakest inhibitor in the subseries”.
As to `O=C(N[C@H](CS[C@H](Cc1ccccc1)C(=O)NCCCc1ccncc1)Cc1ccccc1)c1cc2ccccc2o1`, at CYP3A4 [1], the Kd turned out to be 7 nM. At CYP3A4 [2], this compound returned an IC50 of 170 nM.
`O=C(N[C@H](CS[C@H](Cc1ccccc1)C(=O)NCCCc1cccnc1)Cc1cccc2ccccc12)c1cc2ccccc2o1` had a Kd at CYP3A4 [1] of 4 nM. This compound also came in with an IC50 against CYP3A4 [2] of 200 nM.
